In article PMC12216184 (Nature Communications, 2025):

Tests used:
FOXO4^FH = experiment: 1H,15N HSQC NMR titration of 15N-labeled FOXO4^FH (CSP); format: binding, human; conditions: 100 µM 15N-labeled FOXO4^FH, 1 or 2 equivalents of p53 fragment, 50 mM phosphate pH 7.5, 298 K
[1] = test system: FOXO4^FH – p53^1–94 complex; experiment: NMR competition, displacement of FOXO4^FH from 15N-labeled p53^1–94 by DNA; format: binding, human; conditions: 50 µM 15N-labeled p53^1–94, 100 µM FOXO4^FH, 50 µM CTDSP2
Description: All NMR spectra were recorded at 298 K either on a 700 MHz Bruker Avance III NMR spectrometer equipped with a TCI cryoprobe or on a 600 MHz Bruker Avance Neo NMR spectrometer equipped with a TXI 600S3 probehead at 298 K. All samples were in 50 mM NaH2PO4/Na2HPO4, pH 7.5 and 10 % D2O was added for the lock. Chemical shifts of the recombinant FOXO4-LRI were assigned using the following three-dimensional spectra: HNCACB, CBCA(CO)NH, (HN)N(CA)NNH, HN(NCA)NNH and (H)CC(CO)NH. […] Resonance assignments of FOXO4-LRI were submitted to the BRMB under the accession number 52458 (Supplementary Fig. 15).
Supplementary Figure 2. Characterization of FOXO4 - p53 interactions: (a) 1H,15N HSQC spectrum of 100 µM
15N-labeled FOXO4Cter in the absence (black) or in presence of one stoichiometric equivalent of unlabeled p531-94
(blue). (b) 1H,15N HSQC spectrum of 100 µM 15N-labeled FOXO4Nter in the absence (black) or presence of one
stoichiometric equivalent of unlabeled p531-94 (blue). (c) Overlay of 50 µM 15N-labeled FOXO4CR3 in the absence
50 µM 15N-labeled p531-94 in the absence (black) or presence of 100 µM FOXO4FH (orange) or 50 µM CTDSP2 and
(1 picture or pasted object on this page, not shown here)

[2] = molecular target: T1, FOXO4 forkhead domain (FOXO4^FH) (human, UniProt P98177 86-208); experiment: solution NMR structural model; conditions: both partners purified
[3] = molecular target: T1, FOXO4 forkhead domain (FOXO4^FH); experiment: ITC; conditions: both partners purified

- binding by NMR titration (CSPs) (FOXO4^FH): did not cause any changes
Molecule: p53^TAD1: p53 transactivation subdomain 1, residues 14-37

Molecule: CTDSP2: DNA duplex, sense CCAGATAAACAACCCG, antisense CGGGTTGTTTATCTGG
- displacement of FOXO4^FH from p53^1–94 by DNA [1]: can efficiently compete out FOXO4^FH from p53^1–94

Molecule: p53^TAD2: p53 transactivation subdomain 2, residues 37-57
- binding by NMR titration (CSPs) (FOXO4^FH): led to CSPs of ^1H,^15N cross-peaks of FOXO4^FH

- binding result [2]: binds
Molecule: SQAMDDLMLSPDDIEQWFTED (peptide, UniProt P04637 37-57, looked up) [p53^TAD2 (residues 37-57), recombinant]

- binding result [3]: binds
B1: p53^TAD2 (residues 37-57), synthetic peptide (peptide, UniProt P04637 37-57, looked up)
peptide: SQAMDDLMLSPDDIEQWFTED
notes: human p53, residues 37-57 (TAD2); also called unphosphorylated p53^TAD2; source: synthetic peptide, bought: Peptide Specialty Laboratories GmbH

One block for each molecule: values may come before it.
